Values quoted from earlier work as cited in US20180272346A1, “MODULAR ORGAN MICROPHYSIOLOGICAL SYSTEM WITH MICROBIOME” (Massachusetts Institute of Technology, priority 2017, published 2018).

What was measured:
[1] = test system: immune-competent liver MPS (hepatocytes and Kupffer cells); settings: cited from earlier work
liver MPS from LIVERCHIP = settings: scaled liver MPS from LIVERCHIP, in vitro; cited from earlier work

O=C(O)Cc1ccccc1Nc1c(Cl)cccc1Cl [Diclofenac, diclofenac]
liver functions [1]: impaired | diclofenac elimination rate constant (liver MPS from LIVERCHIP): 5.66×10^−9 (cell*min)^−1
